Laboratory results reported in patent publication US20260382690A1, “Dual-Domain Peptide for Depleting HMGB1 from the Circulation via Liver HSPG System” (published 2026).

Sequences of proteins named here, by UniProt entry; tags and fusion partners are left off.
UniProt P09429, whole entry: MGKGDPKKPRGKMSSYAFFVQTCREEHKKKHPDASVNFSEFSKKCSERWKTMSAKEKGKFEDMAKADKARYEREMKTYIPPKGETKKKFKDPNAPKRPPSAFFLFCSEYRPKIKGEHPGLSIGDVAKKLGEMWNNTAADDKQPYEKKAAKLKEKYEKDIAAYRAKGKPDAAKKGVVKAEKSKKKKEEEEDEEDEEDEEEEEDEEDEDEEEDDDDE

Assays:
[1] = test system: facialis arteries; assay: Endothelial-dependent (ACh-induced) vasodilation of isolated facialis arteries from treated SS mice; conditions: N6022 1 mg/kg/d, subcutaneous, 3 weeks, 1% DMSO; p<0.001
Description: (§1) Effects of hE-HMGB1-BP on vasodilation, eNOS-dependent vasodilation, and plasma HMGB1. Townes SS mice were treated daily with hE-HMGB1-BP (Biomatik Corp., Kitchener, Ontario; 2.72 mg/kg/d, subcutaneous injection) for three weeks. On the day of the vasodilation studies, mice were anesthetized with isoflurane (1-3%), subjected to thoracotomy, and euthanized by exsanguination. A hypodermic needle was inserted into the heart's right side, and blood was drawn into EDTA. Plasma was separated by centrifugation. The plasma was divided into aliquots and stored at −80 °C until analysis for HMGB1 using ELISA kits from Tecan (30164033, Männedorf, Switzerland) as described. Facialis arteries were isolated by microdissection, cannulated, and pressurized to 60 mmHg. Changes in vasodilation of (5Z)-7-[(1R,4S,5S,6R)-6-[(1E,3S)-3-hydroxy-1-octenyl]-2-oxabicyclo[2.2.1]hept-5-yl]-5-heptenoic acid (U46619)-preconstricted, pressurized facialis arteries were determined by video microscopy in response to acetylcholine (Ach) (10-7-10-4 M) as before. After determining vasodilation in the absence of N(G)-nitro-L-arginine methyl ester (L-NAME), the bath's MOPS physiological buffer [CaC12 2H2O (2.0 mM), EDTA (0.02 mM), glucose (5.0 mM), KCl (4.7 mM), MgSO4·7H2O (1.17 mM), MOPS (3.0 mM), NaCl (145 mM), NaH2PO4OH2O (1.2 mM), pyruvic acid (2.0 mM)] was replaced with 37 °C MOPS physiological buffer containing L-NAME (100 μM) and Ach-induced relaxation responses determined once again, as above. eNOS-dependent vasodilation was determined from the area between curves (ABC). The area between vasodilation curves in the absence and presence of L-NAME was calculated using the area under the curve function in Prism GraphPad 9.5.0 after correction of paired data for negative relaxation responses. […]
(§2) Effects of inhibiting GSNOR on vasodilation in SS mice. […] Relaxation responses to Ach (10-7 to 10 4 M) were determined in MOPS physiological buffer in the absence and presence of L-NAME by video microscopy as described. […]

[2] = test system: eNOS-dependent vasodilation, facialis arteries; assay: eNOS-dependent vasodilation (area between curves ± L-NAME) of facialis arteries from treated SS mice; conditions: SS mice, 3 weeks; KYC 3 mg/kg/d or N6022 1 mg/kg/d in PBS with 1% DMSO; ± L-NAME 100 μM
Description: as §1, §2

[3] = biological target: recombinant human HMGB1 (Homo sapiens, UniProt P09429); assay: Affinity pulldown from mouse plasma spiked with r-HMGB1, HMGB1 immunoblot; conditions: mouse plasma with 30 μg/ml r-HMGB1, streptavidin-agarose beads
Description: Referring to FIG. 10, streptavidin-agarose beads (Sigma-Aldrich, St. Louis, MO) were blocked with 5% BSA in PBS at 4 °C overnight. Biotinylated HMGB1-BP or biotinylated scrambled HMGB1-BP (Biomatik, Wilmington, DE) was incubated with mouse plasma supplemented with 30 μg/ml recombinant human HMGB1 (GenScript, Piscataway, NJ) at 4 °C overnight. The Streptavidin-agarose beads were added to the mixture and incubated at 4 °C for 2 h. The beads were centrifuged to pellet the beads, washed with PBS 3 times, and boiled in Laemmli Sample Buffer (Bio-Rad, Hercules, CA). The proteins in the pulldown were immunoblotted for r-HMGB1 using an anti-HMGB1 antibody (Abcam, Waltham, MA) using established protocols.

Cc1cc(C(N)=O)ccc1-n1c(CCC(=O)O)ccc1-c1ccc(-n2ccnc2)cc1
endothelial- and eNOS-dependent vasodilation (in words) [1]: markedly increased endothelial- and eNOS-dependent vasodilation | eNOS-dependent vasodilation (in words) [2]: improved eNOS-dependent vasodilation

CC[C@H](C)[C@H](NC(=O)CNC(=O)[C@H](CCCCN)NC(=O)[C@@H](NC(=O)[C@H](CC(=O)O)NC(=O)[C@H](Cc1ccccc1)NC(=O)[C@H](CC(N)=O)NC(=O)[C@H](CC(N)=O)NC(=O)[C@H](C)NC(=O)[C@H](CO)NC(=O)[C@H](Cc1c[nH]cn1)NC(=O)[C@H](C)NC(=O)CCCCCNC(=O)CCCC[C@@H]1SC[C@@H]2NC(=O)N[C@@H]21)C(C)C)C(N)=O
affinity for r-HMGB1 in plasma pulldown [3]: high specific affinity for r-HMGB1
